Data as given in US10465009B2, “BCMA antigen binding proteins” (Amgen Inc., priority 2012, dated 2019).
Entries after “also recorded” stand apart in the source; their conditions may differ.

T1: BCMA on H929, RPMI 8226, OPM2, MM1S, U266, MM1R, RAMOS and EW36 cells (Homo sapiens, UniProt Q02223, N81S)
T1 construct: endogenous in cells; host or cells: H929, RPMI 8226, OPM2, MM1S, U266, MM1R, RAMOS, EW36
T1 sequence (Q02223 1-184 N81S): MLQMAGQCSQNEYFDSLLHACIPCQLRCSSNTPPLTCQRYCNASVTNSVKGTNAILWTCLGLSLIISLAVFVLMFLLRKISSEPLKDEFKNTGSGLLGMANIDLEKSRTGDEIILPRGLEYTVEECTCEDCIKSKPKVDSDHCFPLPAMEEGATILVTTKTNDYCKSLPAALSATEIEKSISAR


Tests used:
[1] = target: T1, BCMA on H929, RPMI 8226, OPM2, MM1S, U266, MM1R, RAMOS and EW36 cells; experiment: FACS binding of Dy649-labelled antibody to myeloma and B-cell lines
Experimental: Approximately 10 to 40×10^6 of cells were resuspended in a staining solution (2% goat serum, 1% rabbit serum, 0.02% azide in PBS) and aliquoted into round-bottom, 96-well plate (Corning Incorp., Acton, Mass.) as per the experiment design. The cells were incubated at 4 degrees celsius for 30 minutes to block non-specific sites. The antibodies were titrated into the staining solution. The cells were rinsed in a rinse solution (PBS+0.02% azide) by resuspending the cells in 200 ul/well. The cells were centrifuged at 1500 rpm at 4 degrees celsius for 7 minutes. The rinse solution was removed and the rinse step was repeated. […] The cells/antibodies were rinsed as described above to remove excess/unbound antibody. After the last rinse, the cells were resuspended in 200 ul of rinse solution with a drop of staining solution added to keep the cells from aggregating.

[2] = system: MM1R multiple myeloma cell line; experiment: Internalization assay in MM1R cells; format: cell-based, human; settings: post incubation initiation
Experimental: H929 myeloma tumor cells were cultured in growth medium (RPMI 1640, 10% FBS, MEM non-essential Amino Acids, HEPES, beta-mercaptoethanol, Pen/Strep, L-glutamine, sodium pyruvate, gentamicin). The H929 cells were collected into two 3-ml FACS tubes at approximately 500,000 cells per tube and washed once with assay medium (PBS containing 2% FBS). […] After incubation at 4° C. for 30 minutes, the cells were washed once with assay medium. A cocktail of anti-human IgG, Alexa 488 (Molecular Probes Inc., Eugene, Oreg. Catalog# A11013 at a 1:1,000 dilution in assay medium) and Hoechst 33342 (Molecular Probes Inc., Eugene, Oreg. Catalog# H21492 at a 1:2000 dilution in assay medium) was added to the cells. […] The internalization rate was quantified on an ArrayScan V^TI HCS reader (version 6, Cellomics, Thermo Fisher Scientific, Pittsburgh, Pa.) with BioApplication “Spot Detector” algorithm employing a 40× objective. At least 200 cells were counted in each well.
The output parameter algorithm of ArrayScan was “SpotCountPerObjectCh2.” The results were reported as total spot count per 200 cells. […] The spot counts were expressed as the mean±standard error of the mean (SEM) for duplicate measurements (n=2). […] The half-life for internalization was calculated using one-phase exponential association from GraphPad™ Prism.

Molecule	binding to BCMA on myeloma cell lines and B-cell lines [1]	time to half maximal levels of internalization [2]
2A1: parental fully human anti-huBCMA mAb, Vh SEQ ID NO:214, Vl SEQ ID NO:248; heavy chain SEQ ID NO:287, light chain 288 (antibody) heavy: EVQLVESGGGLVKPGRSLRLSCTASGFTFGDYALSWFRQAPGKGLEWVGVSRSKAYGGTTDYAASVKGRFTISRDDSKSFAYLQMNSLKTEDTAVYYCCSSGYSSGWTPFDYWGQGTLVTVSSASTKGPSVFPLAPSSKSTSGGTAALGCLVKDYFPEPVTVSWNSGALTSGVHTFPAVLQSSGLYSLSSVVTVPSSSLGTQTYICNVNHKPSNTKVDKKV[omitted - human IgG1 Fc] light: QSVLTQPPSASGTPGQRVTISCSGSSSNIGSNTVNWYQQLPGTAPKLLIFNYHQRPSGVPDRFSGSKSGSSASLAISGLQSEDEADYYCAAWDDSLNGWVFGGGTELTVLGQPKAAPSVTLFPPSSEELQANKATLVCLISDFYPGAVTVAWKADSSPVKAGVETTTPSKQSNNKYAASSYLSLTPEQWKSHRSYSCQVTHEGSTVEKTVAPTECS	bound BCMA on various myeloma and B-cell lines; also recorded: bound to all myeloma cell lines and B-cell lines	
2A1CV5-MCC-DM1 (conjugate) heavy: EVQLVESGGGLVKPGGSLRLSCAASGFTFGDYALSWFRQAPGKGLEWVGVSRSKAYGGTTDYAASVKGRFTISRDDSKSTAYLQMNSLKTEDTAVYYCASSGYSSGWTPFDYWGQGTLVTVSSASTKGPSVFPLAPSSKSTSGGTAALGCLVKDYFPEPVTVSWNSGALTSGVHTFPAVLQSSGLYSLSSVVTVPSSSLGTQTYICNVNHKPSNTKVDKKV[omitted - human IgG1 Fc] light: QSVLTQPPSASGTPGQRVTISCSGSSSNIGSNTVNWYQQLPGTAPKLLIFNYHQRPSGVPDRFSGSKSGSSASLAISGLQSEDEADYYCAAWDDSLNGWVFGGGTKLTVLGQPKAAPSVTLFPPSSEELQANKATLVCLISDFYPGAVTVAWKADSSPVKAGVETTTPSKQSNNKYAASSYLSLTPEQWKSHRSYSCQVTHEGSTVEKTVAPTECS		about 50 minutes
